The species named for assay [1] is Homo sapiens. The assay is described as follows: Selectivity index, ratio of IC50 for human recombinant HDAC11 to IC50 for human recombinant HDAC6.
The subject of assay [2] is PC-12. As to the kind of experiment: Inhibition of HDAC6 in rat PC12 cells assessed as induction of alpha-tubulin acetylation after 48 hrs by Western blotting analysis relative to control. Format: cell-based.

As for `CCc1nc2cc(/C=C/C(=O)NO)ccc2c(=O)n1CCc1ccccc1`, the Ratio IC50 in assay [1] came out at 268.
For the compound `CCc1nc2cc(F)c(/C=C/C(=O)NO)cc2c(=O)n1CCc1ccccc1`, in assay [2], the fold change (FC) worked out at 3. Further, the Ratio IC50 in assay [1] turned out to be 585.

The values are drawn from ChEMBL document CHEMBL2424579, “Quinazolin-4-one derivatives as selective histone deacetylase-6 inhibitors for the treatment of Alzheimer's disease” (J Med Chem, 2013).
